# This is a selection; strong and weak results do not stand in their true shares. Results filed as inconclusive are left out. Active and inactive are the calls of the source. The call rests on the fitted dose curve; in most records, active means well fitted inhibition curve with a large enough effect in the main read-out, with a control signal flat; inconclusive means small, poorly fitted or top-dose-only effect, or a change in a side signal; inactive means no such curve, though single readings can be large or run the other way.
# Chains of the proteins cited; added tags and fusions are not shown. Residues count along the entry.
# UniProt P55210, 24-198 limits assumed: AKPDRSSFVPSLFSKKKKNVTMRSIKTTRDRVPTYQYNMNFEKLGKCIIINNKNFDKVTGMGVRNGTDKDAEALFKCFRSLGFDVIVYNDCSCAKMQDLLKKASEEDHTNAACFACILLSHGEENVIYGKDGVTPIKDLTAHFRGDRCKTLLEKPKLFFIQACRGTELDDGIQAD
# UniProt P55210, 207-303 limits assumed: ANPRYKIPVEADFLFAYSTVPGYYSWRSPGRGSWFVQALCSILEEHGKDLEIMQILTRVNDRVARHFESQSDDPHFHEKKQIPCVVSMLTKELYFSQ
# Molecular target: Caspase-7 (Homo sapiens) (UniProt P55210)
# Assay: Concentration-Response Counterscreen for Redox Active Inhibitors of Caspase-7: Cysteine
# Conditions: caspase-7 enzyme with cysteine, fluorogenic substrate; at 57.5 µM (top of the series)
# Source text: NIH Molecular Libraries Screening Centers Network [MLSCN]
# NIH Chemical Genomics Center [NCGC]
# PI Name: Dr. James Wells,
# Dr. Enrique Perez-Paya, Dr.Janice Williams, Dr. Dennis Wolan, a person
# The caspases (Cysteine Aspartyl Protease) comprise a related family of 14 dimeric proteases that are critical mediators of apoptosis (programmed cell death) and inflammation. The caspases represent an important class of drug targets for stroke, ischemia, cancer and inflammatory diseases. […] One goal of this project was to identify compounds that act as allosteric inhibitors via stabilizing the procaspase form of the enzyme. […]
# The biochemical assay was configured using purified caspase 7 at a high enzyme concentration to promote formation of the homodimers and thus facilitate the identification of allosteric inhibitors. […] After initiation of the assay with substrate the plates were rapidly read using an automated robotic system (Kalypsys, Inc.) to maintain consistent timing. […] Product formation was also measured after 1 hour. […]
# Caspase 7 was prepared in buffer (50 mM HEPES pH 7.5, 50 mM KCl, 200 mM NaCl, 10 mM Cys (Aldrich cat# 861677), 0.1% CHAPS) at a concentration of 66.6 nM and 3 uL was dispensed to all wells using black solid Kalypsys 1536-well plates. […] The plates were then exposed using 405 nm excitation/520 nm emission filters for 4 sec and read at 20 sec intervals for 3 min. […]
structure (smiles),measurement,value
C/C1=C2N=C(/C=C3N=C(/C(C)=C4\[N-][C@@](C)([C@H]5N=C1[C@@](C)(CCC(=O)NC[C@H](C)OP(=O)([O-])O[C@@H]1[C@H](O)[C@H](n6cnc7cc(C)c(C)cc76)O[C@@H]1CO)[C@@H]5CC(N)=O)[C@](C)(CC(N)=O)[C@H]4CCC(N)=O)[C@@](C)(CC(N)=O)[C@@H]\3CCC(N)=O)C(C)(C)[C@@H]/2CCC(N)=O.[C-]#N.[Co+3],"activity change, negative = inhibition",inactive: -22.6%
